This is a selection; strong and weak results do not stand in their true shares. Some tests of the compounds listed are not included; inactive here does not mean inactive elsewhere. Active and inactive are the calls of the source. The call rests on the fitted dose curve; in most records, active means well fitted activation curve with a large enough effect; inconclusive means small, poorly fitted or top-dose-only effect; inactive means flat fitted curve, though single readings scatter.

Amino acid sequences for entries named in this document (tags omitted).
UniProt P07550, whole entry: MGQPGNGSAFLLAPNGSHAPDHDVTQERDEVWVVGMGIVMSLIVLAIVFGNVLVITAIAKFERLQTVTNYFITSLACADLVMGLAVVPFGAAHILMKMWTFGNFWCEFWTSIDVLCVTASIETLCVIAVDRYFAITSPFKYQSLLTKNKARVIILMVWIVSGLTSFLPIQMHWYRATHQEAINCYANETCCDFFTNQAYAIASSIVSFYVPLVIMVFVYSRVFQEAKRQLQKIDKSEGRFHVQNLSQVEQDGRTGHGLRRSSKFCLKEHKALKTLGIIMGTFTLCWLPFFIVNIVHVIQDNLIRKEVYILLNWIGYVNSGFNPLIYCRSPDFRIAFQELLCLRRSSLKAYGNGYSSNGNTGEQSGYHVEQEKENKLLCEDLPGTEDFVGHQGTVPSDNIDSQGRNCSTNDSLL

In PubChem BioAssay AID492947 (National Center for Advancing Translational Sciences (NCATS), 2010) one finds activation data, which are given here for 24 molecules.

In this experiment the target is Beta-2 adrenergic receptor (Homo sapiens) (UniProt P07550). Description: qHTS assay of beta-arrestin-biased ligands of beta2-adrenergic receptor.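 Further: 0% = DMSO controls and full agonism = EC100 isoproterenol or metaproterenol; nearly all actives have a fitted effect of over 65% in size.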 As to conditions: beta-arrestin recruitment to beta2AR, cell-based reporter; at 46.1 µM (top of the series). The source says:
NIH Molecular Libraries Probe Production Network [MLPCN]
NIH Chemical Genomics Center [NCGC]
PI: Bryan Roth and Bob Lefkowitz
The concept of biased agonism is an emerging concept of molecular pharmacology which proposes that seven transmembrane receptors (7TMRs) or G protein-coupled receptors (GPCRs), exist in multiple signaling conformations and complexes and that ligands (either agonists or antagonists) can induce signaling biased responses for distinct signal transduction cascades.
Furthermore, accumulating evidence over the last decade has drawn attention to a novel function of beta-arrestins as signal transducers that scaffold various signaling molecules upon activation of 7TMRs. […] This beta-arrestin-biased signaling presumably leads to distinct physiological outcomes from those by G protein activation.
Additionally, the active receptor conformations which […] on this beta-arrestin signaling are likely different from those activating G protein signaling
The goal of this screening project will be to discover and optimize novel beta-arrestin-biased ligands for beta2-AR signaling. A luminescent cell-based assay for beta2-AR-mediated agonism, known as the Tango assay, has been validated in which ligand binding of a recombinant beta2-AR and subsequent recruitment of a recombinant beta-arrestin lead to the release of the transcriptional activator tTA, which upregulates transcription of a tTA-responsive luciferase gene. […] Compounds were screened as a concentration-titration series that ranged from 46 microM to 0.6 nM.
NCGC Assay Protocol Summary:
Tango cells were dispensed into white, solid, tissue-culture-treated 1536-well plates at 1500 cells/well in DMEM, containing 1% fetal bovine serum (FBS). Then, 23 nL of compounds or DMSO were delivered to each well using a pin tool. Plates were incubated at 37 degrees C, 5% CO2 for 18 hr. Then 2.5 uL luminescent substrate mix (in-house prepared: 150 mM Tris-Cl, pH 7.6, 3 mM MgCl2, 1% Triton X-100, 5 mM DTT, 0.5 mM CoA, 0.15 mM ATP, 0.44 mM D-luciferin, final concentrations) was added to each well. Plates were then incubated for 15 minutes at room temperature, and subsequently measured on a ViewLux plate reader for luminescent signal using a clear filter with a 10 second exposure and 2x binning. The %Activity was determined from the corrected luminescence values.
Concentration-response curves were fitted to the signals arising from the resulting luminescence. The concentration-effect curves were then classified based on curve quality (r2), response magnitude and degree of measured activity, and compounds were subsequently categorized based on their curve class.
Keywords: biased agonism, beta2-AR, beta-arrestin, GPCR, 7TMR, Tango, luminescence, MLSMR, MLPCN, NIH Roadmap, qHTS, NCGC
(Quantitative high-throughput screening tests each substance at several concentrations.)
As to `CC(C)Oc1ccc(C(=O)NCC2(N(C)C)CCCCC2)cc1`, the activation was inactive: 0.0555%.
In the case of `CN(C)c1cccc(C(=O)NCC2(N(C)C)CCCCC2)c1` it was inactive: 0.0018%.
In the case of `COc1ccc(Br)c(C(=O)NCC2(N3CCCCC3)CCCCC2)c1`, the activation is inactive: -0.862%.
Regarding `O=C(OC1CN2CCC1CC2)C(CO)(c1ccccc1)c1ccccc1` (centres undefined), the activation is inactive: -0.405%.
Turning to `O=C(NCC1(N2CCCCC2)CCCCC1)c1cccc(Cl)c1`, the activation was inactive: -0.326%.
For `COc1ccc(Cl)cc1C(=O)NCC1(N(C)C)CCCCC1`, the activation was inactive: -0.328%.
Regarding `COc1cccc(C(=O)NCC2(N3CCCCC3)CCCCC2)c1`, the activation is inactive: 0.288%.
Take `COc1cc(C(=O)NCC2(N(C)C)CCCCC2)c([N+](=O)[O-])cc1OC`: the activation was inactive: -0.0663%.
Regarding `CN(C)C1(CNC(=O)c2ccc(Br)cc2)CCCCC1`, the activation was inactive: 6.07%.
On to `COc1ccc(C(=O)NCC2(N(C)C)CCCCC2)cc1`, for which the activation is inactive: -0.856%.
The same measure for `O=C(NCC1(N2CCCCC2)CCCCC1)c1cccc(Br)c1`: inactive: -0.37%; for `Cc1cc(C(=O)NCC2(N3CCCCC3)CCCCC2)ccc1[N+](=O)[O-]`: inactive: -0.193%.
Consider `CCN1CCCC(OC(=O)C2(O)c3ccccc3C=Cc3ccccc32)C1` (centres undefined), for which the activation was inactive: -0.863%.
Take `O=C(NCC1(N2CCCCC2)CCCCC1)c1cc(F)c(F)cc1Cl`: the activation is inactive: -0.835%.
Take `C=CCN1CCN(CCOC(=O)C(O)(c2ccccc2)c2ccccc2)CC1`: the activation is inactive: -0.898%.
As for `CN(C)C1CCCC1OC(=O)C(O)(c1ccccc1)c1ccccc1` (centres undefined), the activation is inactive: -0.788%.
As for `CN(C)c1ccc(C(=O)NCC2(N(C)C)CCCCC2)cc1`, the activation was inactive: 0.0503%.
The same measure for `Cc1ccccc1C(=O)NCC1(N2CCCCC2)CCCCC1`: inactive: -0.0885%; for `Cc1ccc(C(=O)NCC2(N3CCCCC3)CCCCC2)cc1`: inactive: -1.23%; for `COc1cc(SC)ccc1C(=O)NCC1(N(C)C)CCCCC1`: inactive: -0.891%.
With `CCN(CC)CC(C)C(C)OC(=O)C(O)(c1ccccc1)c1ccccc1` (centres undefined), the activation is inactive: -0.105%.
In the case of `CC(C)N1C(=O)CC2(CCN(CCOC(=O)C(O)(c3ccccc3)c3ccccc3)CC2)C1=O` it was inactive: 0.0407%; in that of `CN1[C@@H]2CC[C@H]1CC(OC(=O)C(O)(c1ccccc1)c1ccccc1)C2` (some centres undefined), inactive: -0.238%.
Consider `O=C(NCC1(N2CCCCC2)CCCCC1)c1cc([N+](=O)[O-])ccc1Cl`, for which the activation was inactive: -0.0324%.
